Earlier results, collected in article PMC6589951 (Therapeutic Advances in Medical Oncology, 2019).

System: PVNS
Conditions: 28 patients with PVNS; cited from earlier work

emactuzumab: anti CSF1R antibody
CR rate: 7% | PR rate: 79% | disease progression: no patient had disease progression | prolonged stable disease: 11%
